Laboratory results as given in patent US20230173067A1 (Seagen Inc., priority 2020, published 2023).

How the values were obtained:
Type in all cases: in vivo, Mice
[1] = tested on: CTG-0121 CRC PDX model; assay: CTG-0121 HER2 positive CRC PDX model, tumor growth inhibition
Procedure: (§1) The TGI index is calculated for a particular time point (e.g., a specific number of days into an experiment or clinical trial) according to the following formula: […]
(§2) where “Tx Day 0” denotes the first day that treatment is administered (i.e., the first day that an experimental therapy or a control therapy (e.g., vehicle only) is administered) and “Tx Day X” denotes X number of days after Day 0. […] As a non-limiting example, in an experiment where study day 0 corresponds to “Tx Day 0” and the TGI index is calculated on study day 28 (i.e., “Tx Day 28”), if the mean tumor volume in both groups on study day 0 is 250 mm^3 and the mean tumor volumes in the experimental and control groups are 125 mm^3 and 750 mm^3, respectively, then the TGI index on day 28 is 125%.
(§3) Tucatinib was administered orally at a dose of 50 mg/kg twice per day for 28 days (study days 0-27). […] A vehicle-only group was included as a negative control.

[2] = tested on: CTG-0784 CRC PDX model; assay: CTG-0784 HER2 positive CRC PDX model, tumor growth inhibition
Procedure: as §1
(§4) where “Tx Day 0” denotes the first day that treatment is administered (i.e., the first day that an experimental therapy or a control therapy (e.g., vehicle only) is administered) and “Tx Day X” denotes X number of days after Day 0. Typically, mean volumes for treated and control groups are used. As a non-limiting example, in an experiment where study day 0 corresponds to “Tx Day 0” and the TGI index is calculated on study day 28 (i.e., “Tx Day 28”), if the mean tumor volume in both groups on study day 0 is 250 mm^3 and the mean tumor volumes in the experimental and control groups are 125 mm^3 and 750 mm^3, respectively, then the TGI index on day 28 is 125%.
as §3

[3] = tested on: CTG-0383 CRC PDX model; assay: CTG-0383 HER2 positive CRC PDX model, tumor growth inhibition
Procedure: as §1, §2, §3

[4] = tested on: CTG-0137 esophageal cancer PDX model; assay: CTG-0137 HER2 positive esophageal cancer PDX model, tumor growth inhibition
Procedure: as §1, §4, §3

[5] = tested on: GXA 3038 gastric cancer PDX model; assay: GXA 3038 HER2 positive gastric cancer PDX model, tumor growth inhibition
Procedure: as §1, §4, §3

[6] = tested on: GXA 3039 gastric cancer PDX model; assay: GXA 3039 HER2 positive gastric cancer PDX model, tumor growth inhibition
Procedure: as §1, §4, §3

[7] = tested on: GXA 3054 gastric cancer PDX model; assay: GXA 3054 HER2 positive gastric cancer PDX model, tumor growth inhibition
Procedure: as §1, §4, §3

[8] = tested on: CTG-0927 HER2 positive cholangiocarcinoma PDX model; assay: CTG-0927 HER2 positive cholangiocarcinoma PDX model, tumor growth inhibition; details: CTG-0927 cholangiocarcinoma PDX model
Procedure: as §1, §4, §3

[9] = tested on: Calu-3 NSCLC xenograft model; assay: Calu-3 HER2 positive NSCLC xenograft model, tumor growth inhibition
Procedure: as §1, §4
(§5) For the Calu-3 study, tucatinib was administered orally at a dose of 50 mg/kg twice per day for 21 days, beginning on study day 7. […] Seven doses of trastuzumab were administered. A vehicle-only group was included as a negative control. Three individual animals received dose holidays (one in the negative control group and two in the combination therapy group).

[10] = tested on: NCI-H2170 NSCLC xenograft model; assay: NCI-H2170 HER2 positive NSCLC xenograft model, tumor growth inhibition
Procedure: as §1, §4, §5
For the NCI-H2170 study, tucatinib was administered orally at a dose of 50 mg/kg twice per day for 21 days, beginning on study day 18. […] A vehicle-only group was included as a negative control.

Measured: effect on tumor growth (in words)

trastuzumab
inhibited tumor growth: all assays above
